The text below walks through data of PMC11053023 (Nature Communications, 2024).

Common to all, as to conditions: both partners purified
Experiment [1] addresses T1, FEM1B-elongin B-elongin C ternary complex, wild type (human, UniProt Q9UK73 1-627; Q15370 1-118; Q15369 17-112).
T1 construct: FEM1B, human, full length (FEM1BFL); elongin B (EB, ELOB), human; elongin C (EC, ELOC), human; also called FEM1BFL-EB-EC; FEM1B-EB-EC; source: E. coli BL21(DE3), FEM1B and EB-EC co-expressed, purified (Ni-NTA, SEC); copies: 2 + 2 + 2
The experiment can be described thus: ITC; SUMO fusion peptides (0.5-1 mM) titrated into 50 μM FEM1B-EB-EC in the cell, 25 °C, 20 mM Tris, 200 mM NaCl, pH 7.5, 1 mM EDTA; one-site binding model. Background: In ITC the heat of successive injections is recorded.

Experiment [2] has as its target T1, FEM1B-elongin B-elongin C ternary …. The description is as above. The source holds these as a separate data set.
Experiment [3] has as its target T2, FEM1B-EB-EC ternary complex (human, UniProt Q9UK73 1-627; Q15370 1-118; Q15369 17-112).
T2 construct: FEM1B, human, full-length (FEM1B^FL); elongin B (EB, ELOB), human; elongin C (EC, ELOC), human; written as one protomer; also called FEM1B-elongin B-elongin C; FEM1B-ELOB-ELOC; source: E. coli BL21(DE3), co-expressed, purified (Ni-NTA, SEC); copies: + +
Nature of the experiment: ITC; peptides (0.5-1 mM) titrated into 50 μM protein in the cell, 25 °C; 20 mM Tris, 200 mM NaCl, pH 7.5, 1 mM EDTA; one-site binding model.

Experiment [4] concerns the target T3, FEM1B-EB-EC ternary complex with FEM1B D356A/V391A/Q394A/F501A/H502A (human, UniProt Q9UK73 1-627; Q15370 1-118; Q15369 17-112, D356A | V391A | Q394A | F501A | H502A).
T3 construct: FEM1B, human, full length, quintuple mutant of the aromatic (psi) pocket; elongin B (EB, ELOB), human; elongin C (EC, ELOC), human; also called 5A mutant; FEM1BFL-EB-EC D356A/V391A/Q394A/F501A/H502A; source: E. coli BL21(DE3), purified in the same way as the WT protein; copies: + +
Nature of the experiment: ITC; SUMO fusion peptides (0.5-1 mM) titrated into 50 μM FEM1B-EB-EC in the cell, 25 °C, 20 mM Tris, 200 mM NaCl, pH 7.5, 1 mM EDTA; one-site binding model.

B1: SUMO-(GGGS)2-MCRIP1 C-term 23-mer (peptide)
chain: GWTIDMRRNEPERTRSLSAPGPL
notes: MCRIP1, human, C-terminal 23 residues; limits not given; source: E. coli BL21(DE3), purified (Ni-NTA; SEC for ITC); not shown: SUMO with (GGGS)2 linker, N-terminal, kept
In general, Kd refers to the constant that tells how readily two partners part at equilibrium. The low end stands for a tighter complex, the high end for a looser complex. In general, stoichiometry N refers to the number of molecules, sites or subunits per partner or assembly. B1: in experiment [1], the Kd is 1.9 ± 0.1 µM and the “stoichiometry N” value was found to be 0.45.

B2: SUMO-(GGGS)2-CDK5R1 285-307 WT (peptide)
chain: VFSDLKNESGQEDKKRLLLGLDR
notes: CDK5R1, human, C-terminal 23 residues; also called CDK5R1 23-mer; 23-aa CDK5R1 C-degron; source: E. coli BL21(DE3), purified (Ni-NTA; SEC for ITC); not shown: SUMO with (GGGS)2 linker, N-terminal, kept
B2: the “stoichiometry N” value in experiment [2] amounted to 0.62.

B3: PSMB5 C-degron (C-term 23-mer), SUMO fusion (peptide)
peptide: GGGSGGGSDGWIRVSSDNVADLHEKYSGSTP
notes: (Gly-Gly-Gly-Ser)2 linker; last 23 residues of PSMB5, human; numbers count on: the peptide from its C-terminus; source: E. coli BL21(DE3), purified (Ni-NTA, ion exchange, SEC)
Turning to B3, the binding result in experiment [3] is listed as “binds”.

B4: CDK5R1 C-degron, 10-aa fragment (peptide)
peptide: KKRLLLGLDR
notes: last 10 residues of CDK5R1, human; also called 10-aa CDK5R1 C-degron; Arg/C-degron of CDK5R1
Molecule B4 registered an equilibrium dissociation constant (Kd) in experiment [3] of 7.6 µM.

B5: SUMO-(GGGS)2-CDK5R1 298-307 WT (peptide)
chain: KKRLLLGLDR
notes: CDK5R1, human, C-terminal 10 residues; also called CDK5R1 10-mer; 10-aa CDK5R1 C-degron; source: E. coli BL21(DE3), purified (Ni-NTA; SEC for ITC); not shown: SUMO with (GGGS)2 linker, N-terminal, kept
On to B5, for which the Kd in experiment [4] was 7.8 ± 2.1 µM. Moreover, the “stoichiometry N” value in experiment [2] came out at 0.49.

B6: SUMO-(GGGS)2-BEX2 116-128 WT (peptide)
chain: HSLRAVSTDPPHHDHHDEFCLMP
notes: BEX2, human, C-terminal 23 residues; source: E. coli BL21(DE3), purified (Ni-NTA; SEC for ITC); not shown: SUMO with (GGGS)2 linker, N-terminal, kept
In the case of B6, in experiment [1], the Kd turned out to be 6.8 ± 1 µM and the “stoichiometry N” value was found to be 1.2.
